Literature values as cited in patent US20170115265A1, “Use of Visibly Detectable Compounds as Performance Reference Compounds in Passive Sampling Devices” (Geosyntec Consultants, Inc., priority 2015, published 2017).

Settings: drugs, reported by Scheytt et al. 2005; cited from earlier work

In the case of NC(=O)N1c2ccccc2C=Cc2ccccc21 [Carbamazepine], the “Log KOW value” is listed as 1.51.
